# Yeast mating assay B: variants of the scFv Ab-14

Target: peptide PDVDLGDISGINAS, taken from heptad repeat 2 (HR2) of SARS-CoV-2 spike.

Ab-14 is the parent antibody, in scFv form: VH, then a 15-residue (Gly4Ser)3 linker, then VL. The heavy chain is unchanged in all variants.
VH: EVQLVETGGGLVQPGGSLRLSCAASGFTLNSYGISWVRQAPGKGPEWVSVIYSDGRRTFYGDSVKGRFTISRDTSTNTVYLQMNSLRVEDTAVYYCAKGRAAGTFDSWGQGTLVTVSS
VL: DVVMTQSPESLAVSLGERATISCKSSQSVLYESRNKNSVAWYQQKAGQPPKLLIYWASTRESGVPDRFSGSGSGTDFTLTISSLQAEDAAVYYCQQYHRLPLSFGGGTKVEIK

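Designed CDR sequences, proposed from the first random library and measured here. Several design methods are mixed in this list. The scFvs were displayed on barcoded MATa yeast, the peptide on MATalpha yeast. Binding brings cells together so that they mate, and sequencing counts the barcode pairs among the diploids. Read counts were normalised to the haploid input and turned into Kd by a linear fit to BCL2-family pairs of known affinity, for each replicate. The assay was run in six technical replicates.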

The parent's light chain CDRs are KSSQSVLYESRNKNSVA, WASTRES, QQYHRLPLS; each variant's own CDRs replace them letter for letter. Values are log10 of the apparent Kd in nM; lower means stronger binding. Where no diploid with the target was found in that replicate, the entry reads "ND": below detection, most likely a poor binder, though not proof of it.

The variant KSSQSVLYESRNNNSVA | WASTREK | QQYHRLPLS gave 1.94, 1.16, 1.04, 1.12, 0.92, 1.63 (controls 2 of 18).
The variant KIGQQVTYESTNKNAIA | QMTTREK | QQYHRLPLS gave 0.14, 0.22, -0.09, 0.41, 0.06, 0.37 (controls 0 of 18).
The variant KQSQSVLYESRNKNSVA | MASTRES | QQYSRLPLS gave 1.18, 1.04, 0.30, 1.31, 0.71, 0.79 (controls 0 of 18).
The variant RLRLKELGMSYNANQVA | DSENRIK | QQYYRLPLT gave 2.00, 2.19, 1.61, 1.92, 2.27, 2.61 (controls 1 of 18).
The variant KLSQSWLYESRNKNSVA | NASTRES | QCYHRLPLS gave 0.21, 0.19, 0.11, 0.01, 0.24, 0.64 (controls 1 of 18).
The variant KLGSATRFESSNKASIA | DNSTREN | QQYHRLPLS gave 1.38, 1.77, 1.27, 1.39, 2.18, 1.13 (controls 0 of 18).
The variant KLRAVTGTEKVLGNNVA | EMETRER | QQYNRLPLS gave 0.31, 0.20, 0.35, -0.20, 0.07, 0.19 (controls 0 of 18).
The variant KLGATMNTEMTKRNNVA | DLVNREN | QQYFRLPLS gave 0.42, -0.39, -0.18, -0.09, 0.35, 0.22 (controls 0 of 18).
The variant HISQSVGLTSRNKNSVA | ENSTRED | QQYDRLPLS gave 2.04, 1.72, 1.99, 2.79, 2.69, 3.51 (controls 0 of 18).
The variant KSSQSFLYESRNKNSVA | GNSTRES | QQYHRSTLS gave ND, 2.06, ND, ND, ND, 2.00 (controls 0 of 18).
The variant MLYGLTVSMSKNKNNVA | EMTTREK | QQYDRLPLI gave 1.13, 0.62, 0.32, 2.65, 0.07, 1.14 (controls 0 of 18).
The variant KFSWSNPYESRNKNSVA | NASTRES | QQYWRLPLS gave 0.14, -0.26, -0.28, -0.26, -0.05, -0.05 (controls 0 of 18).
The variant KISQSVNFFGHAINSVA | EMETREN | QQYDRLPLS gave 1.06, 1.18, 1.45, 0.85, 0.89, 1.37 (controls 1 of 18).
The variant KVSEFMRGMMRQKDSIA | DNETRSN | QQYDRLPLS gave 1.48, 1.59, 1.14, 1.42, 1.04, 1.65 (controls 2 of 18).
The variant KSQQSVLYESRNKNNVA | AASTRED | QQYARLPLS gave 0.87, 1.95, 1.12, ND, ND, ND (controls 0 of 18).
The variant MMSQVTGLGQRTRNNVA | QTSTREE | QQYDRLPLI gave 0.41, 0.64, 0.85, 0.64, 0.96, 0.43 (controls 0 of 18).
The variant KCSQSVLYHSRNKNSVA | GASTRES | QQYHHLPLS gave 0.74, 0.82, 1.93, 0.24, 0.54, 0.90 (controls 0 of 18).
The variant HLGLSTMLQETVRNSVA | NNSTREE | QQYDRLPLS gave 1.72, 1.77, 2.06, 2.38, 2.59, 2.06 (controls 2 of 18).
The variant KSSQSVLYESRNLNHVA | RASTRES | QQYYRLPLS gave 0.78, 0.75, 0.42, 0.33, 1.88, 0.67 (controls 1 of 18).
The variant HLGLATMLEEHVRNSVA | NNSTREQ | QQYDRLPLS gave 2.86, 1.47, 0.84, 2.06, 1.96, 1.49 (controls 1 of 18).
The variant KSSISYLYESRNPNSVA | EASTREQ | QQYHRLPLS gave 0.08, -0.06, 0.20, -0.28, -0.23, -0.01 (controls 0 of 18).
The variant KVSQSVLYESRNKNSVA | EASTREE | QQYHRLPLS gave -0.12, -0.09, -0.32, -0.30, -0.41, -0.36 (controls 1 of 18).
The variant KLYQSQLYDSRNKNSVA | QAHHREV | QQYHRLPLS gave 0.60, 0.41, 0.65, 0.42, 0.65, 0.76 (controls 0 of 18).
The variant NISHFMDVTAKNINNVA | EMTTREE | QQYHHLPLS gave 0.48, 0.27, 0.38, 0.11, 0.01, 0.79 (controls 2 of 18).
The variant MFSQLFMMGSRNYNSVA | QASTREE | QQYHRLPLI gave ND, 0.20, 0.13, 0.29, -0.26, -0.09 (controls 0 of 18).
The variant KLSTSWLYESRNVNAVA | EASTRMD | QQYHRLPLS gave 0.14, 0.10, -0.01, -0.12, 0.24, 0.05 (controls 2 of 18).
The variant KFSQSVGYESRNKNSVA | DASQRES | QQYHRLPLS gave -0.20, -0.29, -0.51, -0.36, -0.31, -0.15 (controls 2 of 18).
The variant IVSQLMLWGMHAKNSIA | EAQTRLN | QQYERLPLI gave 0.37, 0.24, -0.02, 0.03, 0.18, 0.22 (controls 0 of 18).
The variant KVSQSVLYESRNKNSVA | MASTRES | QQYHRLPLS gave 0.37, 0.10, 0.12, -0.06, 0.08, 0.11 (controls 0 of 18).
The variant KSSQLVLYESSNTNSVA | SASTRES | QQCSRLPLS gave 1.04, 0.97, 0.66, 1.11, 0.65, 0.87 (controls 1 of 18).
The variant HVSESVFLQSKMRNSVA | ENSTRES | QQYDRLPLS gave 1.89, 1.22, 2.58, 2.60, 1.61, 1.90 (controls 1 of 18).

Top 3 of the variants detected in all replicates, tightest first:

CDR-L1,CDR-L2,CDR-L3,"log10 Kd, replicates",signal with controls
KFSQSVGYESRNKNSVA,DASQRES,QQYHRLPLS,"-0.20, -0.29, -0.51, -0.36, -0.31, -0.15",2 of 18
KVSQSVLYESRNKNSVA,EASTREE,QQYHRLPLS,"-0.12, -0.09, -0.32, -0.30, -0.41, -0.36",1 of 18
KFSWSNPYESRNKNSVA,NASTRES,QQYWRLPLS,"0.14, -0.26, -0.28, -0.26, -0.05, -0.05",0 of 18

The authors' rule: three or more of the six replicates give a measured affinity, fewer mean a poor binder. Background: pairings of all light chain designs with three empty control strains gave a value in 4% of cases (median 2.64, 5th percentile 1.59). Values in that range, when seen in few replicates, are hard to tell from nonspecific mating. Also given: how often the same scFv was detected with the empty control strains. A sequence measured in both rounds can read differently, since the two assays cover different ranges. Of ten entries with the parent sequence, four were seen in most replicates (averages 0.34 to 2.37), three in one and three in none, so single entries are noisy.

From the AlphaSeq antibody data of Li et al. 2023 (doi:10.1038/s41467-023-39022-2), copy in the FLAb collection.